From patent publication US20140235536A1, “INJECTABLE SOLUTION AT PH 7 COMPRISING AT LEAST ONE BASAL INSULIN THE ISOELECTRIC POINT OF WHICH IS COMPRISED IN 5.8 AND 8.5 AND AN ANIONIC COMPOUND BEARING CARBOXYLATE CHARGES AND HYDROPHOBIC RADICALS” (ADOCIA, priority 2013, published 2014) come the findings set out here.

Protein sequences, listed by entry. Tags and fused reporters are not part of them. Residues count along the entry.
UniProt P01308, 25-56 limits assumed, stated change not applied: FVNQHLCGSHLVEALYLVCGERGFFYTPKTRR
UniProt P01308, 90-110 N110G limits assumed: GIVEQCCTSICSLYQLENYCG

One series concerns the target T1, insulin glargine (Homo sapiens, UniProt P01308, INS54RR/N110G).
T1 construct: substitution of asparagine residue A21 with a glycine residue; elongation of the C-terminal of the B chain of human insulin with two arginine residues; purchased SANOFI-AVENTIS (Lantus®); ELI LILLY (Humalog®)
In kind it is physicochemical. The following applies: pH 7.

Series [1] has as its target insulin glargine and prandial insulin (Homo sapiens, UniProt P01308, INS54RR/N110G). The conditions noted are these: pH 7.

In the case of “Sodium Maltotriosemethylcarboxylate Functionalized with Dilauryl Aspartate [AA6]”, the Insulin glargine solubilization result on insulin glargine is given as “Yes”. Further, in series [1], the “Solubilization of insulin glargine/insulin lispro 75/25” value is reported as “Yes”.
